This note sets out measurements from patent publication US9683053B2.

This assay has as its target scFv(anti-HER2)-BT beta chain (Artificial Sequence). Kind of assay: co-expression of three chains, protein-A, scanning densitometry of non-reduced SDS-PAGE.

With “VH(anti-EGFR)-CH1-BT alpha chain with VL(anti-EGFR)-CK chain”, the hetero-dimerization rate was found to be 49.5%.
